Measurements: patent publication US20260384394A1, “(HETERO)ARYL-CARBONYL-HETEROBICYCLIC COMPOUNDS AS INHIBITORS OF PMS2 FOR CANCER AND DEGENERATIVE ILLNESSES” (published 2026)

Chains of the proteins cited; added tags and fusions are not shown. Residues count along the entry.
UniProt P54278, 1-365 limits assumed: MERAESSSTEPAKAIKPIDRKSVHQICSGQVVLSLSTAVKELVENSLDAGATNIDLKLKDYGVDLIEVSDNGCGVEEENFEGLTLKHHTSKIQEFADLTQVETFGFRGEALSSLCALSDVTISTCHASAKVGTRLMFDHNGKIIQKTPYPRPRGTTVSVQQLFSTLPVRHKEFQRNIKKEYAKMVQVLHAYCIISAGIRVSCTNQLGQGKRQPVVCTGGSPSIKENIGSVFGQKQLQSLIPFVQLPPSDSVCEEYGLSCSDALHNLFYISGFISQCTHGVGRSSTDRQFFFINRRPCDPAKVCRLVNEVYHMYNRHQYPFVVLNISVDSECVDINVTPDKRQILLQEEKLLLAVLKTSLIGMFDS

target: recombinant N-terminal PMS2 (residues 1-365) (Homo sapiens, UniProt P54278); test: Fluorescence Polarisation Assay for PMS2 (displacement of fluorescent probe compound); settings: read-out: PMS2 IC50, 10 nM N-terminal PMS2, 5 nM probe compound, pH 7.5, room temperature, 30 min pre-incubation then 1 hour
Protocol: Fluorescence Polarisation Assay for PMS2
Test compounds, as 10 mM DMSO stocks, were dispensed into a Black Fluotrac 200 384 well medium binding plate (Greiner Bio-One, item number 781076) using a Labcyte Echo acoustic liquid handler. For single point screening, test compounds were added to wells in columns 1-22 whilst DMSO was added to wells in columns 23 and 24 in order to normalise the plate. For potency determination, serial dilutions of test compounds were added to wells in columns 3-22 and DMSO volume was normalised across the plate.
20 μL of a 2× solution (20 nM) of recombinant N-terminal PMS2 (residues 1-365) in assay buffer (25 mM HEPES, pH 7.5, 250 mM NaCl, 10 mM MgCl2, 0.01% Triton X-100, 5 mM Dithiothreitol) was added to all wells in columns 2-23 for potency determination or columns 1-23 for single point screening. 20 μL assay buffer was added to all wells in columns 1 and 24 (column 24 only for single point screening) using a MultiDrop Combi (ThermoFisher). Plates were centrifuged for 1 minute at 250×g and were incubated at room temperature for 30 minutes prior to the addition of 20 μL of 2×(20 nM) of 5-((5-(4-((2-(2,4-dihydroxy-5-isopropylbenzoyl)isoindolin5-yl)methyl)piperazin-1-yl)pentyl)carbamoyl)-2-(6-(dimethylamino)-3-(dimethyliminio)-3H-xanthen-9-yl)benzoate (referred to hereinafter as “probe compound”) in assay buffer (prepared from a 100 μM DMSO stock) with a MultiDrop Combi (ThermoFisher). The final concentration of N-terminal PMS2 was 10 nM and the final concentration of probe compound was 5 nM.
Compound plates were centrifuged for 1 minute at 250×g for 1 minute and were incubated at room temperature for 1 hour before being read on a PheraStar FSX (fitted with 384-well aperture spoon and 540 590 590 FP optic module). The gain and focus were adjusted before each plate was read so that the polarisation of a no enzyme control (column 24) was equal to 35 mP. Data were normalised against the no inhibitor controls (column 23) and no enzyme controls (column 24).

| IC50 [nM] | Compound |
| --- | --- |
| < 100 | CC(C)c1cc(C(=O)N2Cc3cccc(N(C)C(=O)/C=C/CN(C)C)c3C2)c(O)cc1O |
| > 1000 | Cc1cc2cc(C(=O)N3Cc4cccc(N(C)C(=O)/C=C/CN(C)C)c4C3)c(O)cc2[nH]1 |
| > 1000 | CN(C)C/C=C/C(=O)N(C)c1cccc2c1CN(C(=O)c1cc3c(cc1O)NCC3(C)C)C2 |
| < 100 | COCCN(C(=O)/C=C/CN(C)C)c1cccc2c1CN(C(=O)c1cc(C)c(O)cc1O)C2 |
| > 1000 | CC(C)c1ccc(O)c(C(=O)N2Cc3cccc(N(C)C(=O)/C=C/CN(C)C)c3C2)c1 |
| 100 to 1000 | CN(C)C/C=C/C(=O)Nc1cccc2c1CN(C(=O)c1cc(F)c(O)cc1O)C2 |
| 100 to 1000 | C=CC(=O)N(C)c1cccc2c1CN(C(=O)c1cc(C)c(O)cc1O)C2 |
| 100 to 1000 | COc1cc(C(=O)N2Cc3cccc(NC(=O)/C=C/CN(C)C)c3C2)c(O)cc1O |
| 100 to 1000 | COc1cc(O)c(C(=O)N2Cc3cccc(N(C)C(=O)/C=C/CN(C)C)c3C2)cc1C(C)C |
| < 100 | CN(C)C/C=C/C(=O)Nc1cccc2c1CN(C(=O)c1cc(C(C)(C)C)c(O)cc1O)C2 |

The next lines start with the compound.

| Compound | IC50 [nM] |
| --- | --- |
| CC(C)c1cc(C(=O)N2CCc3ccc(N(C)C(=O)/C=C/CN(C)C)cc3C2)ccc1O | 100 to 1000 |
| COc1cc(O)c(C(=O)N2Cc3ccc(Cl)c(N(C)C(=O)/C=C/CN(C)C)c3C2)c(C)c1Cl | > 1000 |
| COc1cc(O)c(C(=O)N2Cc3cccc(NC(=O)/C=C/CN(C)C)c3C2)c(C)c1Cl | < 100 |
| Cc1cc2c(c(N(C)C(=O)/C=C/CN(C)C)c1)CN(C(=O)c1c(O)cc(O)c(C)c1C)C2 | < 100 |
| Cc1c(O)cc(O)c(C(=O)N2Cc3cccc(N(CCc4ccccn4)C(=O)/C=C/CN(C)C)c3C2)c1C | < 100 |
| C=CC(=O)N(C)c1cc2c(nc1C)CCN(C(=O)c1cc(C(C)C)c(OC)cc1O)C2 | 100 to 1000 |
| CC#CC(=O)Nc1cnc2c(c1)CN(C(=O)c1c(O)cc(OC)c(Cl)c1C)CC2 | > 1000 |
| CN(C)C/C=C/C(=O)N(C)c1ccc2c(c1)CN(C(=O)c1cc(C(C)(C)C)c(F)cc1O)CC2 | > 1000 |
| CC(C)c1cc(C(=O)N2Cc3cccc(NC(=O)/C=C/CN(C)C)c3C2)ccc1O | > 1000 |
| C=CC(=O)N(CCC1CCN(C)C1)c1cccc2c1CN(C(=O)c1cc(C)c(O)cc1O)C2 (centres unmarked) | 100 to 1000 |
| C=CC(=O)N(C)c1cc2c(cc1OCCN(C)C)CCN(C(=O)c1c(O)cc(OC)c(Cl)c1C)C2 | < 100 |
| C=CC(=O)Nc1cnc2c(c1)CN(C(=O)c1cc(C(C)C)c(OC)cc1O)CC2 | > 1000 |
| C=CC(=O)N(C)c1cccc2c1CN(C(=O)c1c(O)cc(O)c(Cl)c1C)C2 | < 100 |
| CN(C)C/C=C/C(=O)Nc1cccc2c1CN(C(=O)c1ccc(O)cn1)C2 | > 1000 |
| C=CC(=O)Nc1cccc2c1CN(C(=O)c1c(C)cc(O)cc1O)C2 | 100 to 1000 |
| C=CC(=O)N(Cc1ccccc1)c1cccc2c1CN(C(=O)c1ccc(O)cc1O)C2 | > 1000 |
| CN(C)C/C=C/C(=O)Nc1cccc2c1CN(C(=O)c1cc(C(F)(F)F)c(O)cc1O)C2 | < 100 |
| C=CC(=O)N(C)c1cc2c(cn1)CCN(C(=O)c1c(O)cc(OC)c(Cl)c1C)C2 | < 100 |
| COc1nc2c(cc1N(C)C(=O)/C=C/CN(C)C)CN(C(=O)c1ccc(O)c(C(C)C)c1)CC2 | 100 to 1000 |
| C=CC(=O)N(C)c1c(Cl)ccc2c1CN(C(=O)c1c(O)cc(OC)c(Cl)c1C)C2 | > 1000 |
| C=CC(=O)N(C)c1ccc(Cl)c2c1CN(C(=O)c1c(O)cc(OC)c(Cl)c1C)C2 | 100 to 1000 |
| C/C=C/C(=O)N(C)c1ccc2c(c1)CN(C(=O)c1c(O)cc(OC)c(Cl)c1C)CC2 | > 1000 |
